This passage reports Fold over parental 293T and Fold over buffer results from patent US20250019450A1.

Experiment [1] deals with cyno IL-12RB2 overexpressed on 293T cells (Example 2) (cyno). Nature of the experiment: FACS, hybridoma supernatant, 293T.
Experiment [2] addresses human IL-12RB2 overexpressed on 293T cells (Example 2) (human) (UniProt Q99665). In words: FACS, hybridoma supernatant, 293T. Background: Flow cytometry measures light scatter and fluorescence of single cells or particles in a stream.
In experiment [3] the target is IL-12 receptor endogenously expressed on THP-1 cells (UniProt P42701). Nature of the experiment: FACS, hybridoma supernatant, THP-1.

Turning to 85802_10D03 (antibody), the Fold over parental 293T in experiment [1] stood at 6 fold; in experiment [2], 3.4 fold. For the same substance, in experiment [3], the Fold over buffer came out at 24 fold.
